“And” between values parts separate entries of the source, which are not always exact repeats. Identical values can stand only once.

Chains of the proteins cited; added tags and fusions are not shown.
UniProt P35372, whole entry: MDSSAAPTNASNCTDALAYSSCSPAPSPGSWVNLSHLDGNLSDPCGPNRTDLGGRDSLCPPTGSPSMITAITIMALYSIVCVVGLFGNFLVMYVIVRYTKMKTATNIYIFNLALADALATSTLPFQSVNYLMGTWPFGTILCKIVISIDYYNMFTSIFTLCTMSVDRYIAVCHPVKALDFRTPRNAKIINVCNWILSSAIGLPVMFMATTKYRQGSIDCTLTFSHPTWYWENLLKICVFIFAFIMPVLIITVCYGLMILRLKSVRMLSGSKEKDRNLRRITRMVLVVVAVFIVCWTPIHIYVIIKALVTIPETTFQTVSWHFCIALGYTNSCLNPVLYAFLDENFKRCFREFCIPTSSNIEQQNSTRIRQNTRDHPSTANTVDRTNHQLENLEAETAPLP

In this assay the target is Mu-type opioid receptor (Homo sapiens, UniProt P35372). The experiment in a line: Binding Assay: Binding assay of certain compounds of this invention to the opioid receptor was determine using radioligand binding assay (screening and dose-displacement).
Usually Ki stands for the equilibrium dissociation constant of an inhibitor or competing ligand from its target. A high value points to lower affinity. Take `COc1ccc2c3c1O[C@H]1[C@@]4(OC)CC[C@@]5(C[C@@H]4COCc4ccc(C(C)(C)C)cc4)[C@@H](C2)N(CC2CC2)CC[C@]315`: the Ki is 7.99 nM and 3.58 nM.

On to `COc1ccc2c3c1O[C@H]1[C@@]4(OC)CC[C@@]5(C[C@@H]4COCc4cccc(C)c4)[C@@H](C2)N(CC2CC2)CC[C@]315`, for which the Ki was 1.2 nM and 0.15 nM.

Take `COc1ccc2c3c1O[C@H]1[C@@]4(OC)CC[C@@]5(C[C@@H]4COC/C=C/c4ccccc4)[C@@H](C2)N(CC2CC2)CC[C@]315`: the Ki is 0.53 nM and 4.35 nM.

As for `COc1ccc2c3c1O[C@H]1[C@@]4(OC)CC[C@@]5(C[C@@H]4COCc4ccc6ccccc6c4)[C@@H](C2)N(CC2CC2)CC[C@]315`, the Ki was 0.74 nM and 1.87 nM.

For the origin of these results see ChEMBL document CHEMBL3638745, “Buprenophine analogs” (2013).
